Experimental data published in ChEMBL document CHEMBL3886617, “NAMPT and rock inhibitors” (2016).

Protein sequences, listed by entry. Tags and fused reporters are not part of them. Lines headed by an entry give the natural chain unless they say otherwise; changes in a name come on top.
UniProt P43490: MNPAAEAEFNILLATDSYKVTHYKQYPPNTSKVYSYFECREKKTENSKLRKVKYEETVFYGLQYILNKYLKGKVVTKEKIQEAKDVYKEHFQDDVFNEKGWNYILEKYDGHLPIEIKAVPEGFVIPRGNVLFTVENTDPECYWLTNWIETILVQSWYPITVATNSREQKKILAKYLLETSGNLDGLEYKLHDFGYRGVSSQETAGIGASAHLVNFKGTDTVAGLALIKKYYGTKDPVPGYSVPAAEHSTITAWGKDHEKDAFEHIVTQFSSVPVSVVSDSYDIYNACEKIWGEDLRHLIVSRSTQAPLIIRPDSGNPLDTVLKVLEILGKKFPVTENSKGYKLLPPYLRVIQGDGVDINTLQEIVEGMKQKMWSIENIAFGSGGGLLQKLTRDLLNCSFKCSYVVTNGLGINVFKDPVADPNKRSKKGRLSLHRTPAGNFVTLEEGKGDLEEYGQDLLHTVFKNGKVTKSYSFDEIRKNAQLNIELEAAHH

Each molecule was assayed against Nicotinamide phosphoribosyltransferase (Homo sapiens, UniProt P43490).

Q: For `O=C(NCCN1CCCC1=O)c1ccc(NC(=O)N2Cc3ccc(F)cc3C2)cc1`, which IC50 is on record?
A: The IC50 was 15 nM.

Q: `COC[C@H](C)NC(=O)c1ccc(NC(=O)N2Cc3ccccc3C2)cc1` was tested. Which IC50 did it give?
A: The IC50 was 255 nM.

Q: For `CCCC(=O)N[C@@H]1CCN(c2ccc(NC(=O)N3Cc4ccccc4C3)cc2)C1`, which IC50 is on record?
A: The IC50 was 783 nM.

Q: For `O=C(NC1CCCCC1)c1ccc(NC(=O)N2Cc3ccccc3C2)cc1`, which IC50 is on record?
A: The IC50 was 133 nM.

Q: `CCCNC(=O)c1ccc(NC(=O)N2Cc3ccc(CN)cc3C2)cc1` was tested. Which IC50 did it give?
A: The IC50 was 298 nM.

Q: Which IC50 does the source give for `CN(CC(O)c1ccccc1)C(=O)c1ccc(NC(=O)N2Cc3ccccc3C2)cc1` (stereo unspecified) here?
A: The IC50 was 154 nM.
